Where two headings read alike, the source gives them in different places.
System: skin of a human volunteer
Conditions: 1 mA for 80 min

- skin colour at delivery electrode location after washing (Example 10, with about 1 to 5% surfactant, upper arm): markedly blue throughout
- skin colour at delivery electrode location after washing (Example 12, brushed site, with surfactant): markedly blue throughout
Structure (SMILES): CN(C)c1ccc2nc3ccc(=[N+](C)C)cc-3sc2c1 [methylene blue]

Reference: US20170050044A1, “Integumentary System Therapy” (priority 2015, published 2017)
